The numbers were not newly measured in US20090134028A1, “Method of Estimating Effect of Test Chemical on Living Organisms” (Chemicals Evaluation and Research Institute, priority 2005, published 2009), which cites them from elsewhere.

Molecules are shown by their SMILES. Read-outs that look alike come from different tables or passages of the source.

For the data set the following is noted: known carcinogenicity of chemical, cited from earlier work.

`CN(N=O)C(=N)N[N+](=O)[O-]`: the Carcinogenicity entry reads like this: (Tables 1 to 3) “+”; (Tables 8 to 11) “+”.
